We go through one compound from ChEMBL document CHEMBL3886918, “Pyrimidine compounds useful in the treatment of diseases mediated by IKKE and/or TBK1 mechanisms” (2016).

Chains of the proteins cited; added tags and fusions are not shown. Lines headed by an entry give the natural chain unless they say otherwise; changes in a name come on top.
UniProt Q9UHD2: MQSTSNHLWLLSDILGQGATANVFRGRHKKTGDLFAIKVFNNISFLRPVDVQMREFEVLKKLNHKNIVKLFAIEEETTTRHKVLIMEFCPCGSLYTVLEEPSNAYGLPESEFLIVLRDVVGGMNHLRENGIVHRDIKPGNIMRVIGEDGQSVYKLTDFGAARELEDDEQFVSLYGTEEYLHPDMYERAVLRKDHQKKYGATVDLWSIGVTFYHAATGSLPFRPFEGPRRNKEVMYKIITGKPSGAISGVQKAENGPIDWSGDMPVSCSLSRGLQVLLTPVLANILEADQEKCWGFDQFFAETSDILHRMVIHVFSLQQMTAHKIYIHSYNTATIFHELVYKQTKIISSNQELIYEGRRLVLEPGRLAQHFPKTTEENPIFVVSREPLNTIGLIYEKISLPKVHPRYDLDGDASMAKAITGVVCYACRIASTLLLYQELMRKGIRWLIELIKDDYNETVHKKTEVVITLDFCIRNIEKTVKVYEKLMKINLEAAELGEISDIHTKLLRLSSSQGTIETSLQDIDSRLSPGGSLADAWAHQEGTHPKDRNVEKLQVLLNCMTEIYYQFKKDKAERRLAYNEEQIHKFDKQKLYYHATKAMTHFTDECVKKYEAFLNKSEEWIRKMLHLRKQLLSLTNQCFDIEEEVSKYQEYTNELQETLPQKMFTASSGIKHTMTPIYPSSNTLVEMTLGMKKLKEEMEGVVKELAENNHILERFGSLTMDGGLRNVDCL

The assay addresses Serine/threonine-protein kinase TBK1 (Homo sapiens, UniProt Q9UHD2). The experiment in a line: Time-Resolved Fluorescence-based Lanthascreen Assay: Kinase inhibition assays (10 μL) were performed at 20° C. in 384-well plate format. Compound IC50 values were determined at the apparent Km for ATP (20 μM) based on a radiometric assay (Invitrogen) using 8 or 10 point curves in duplicate. The final reaction conditions contained 400 nM fluorescein-IkBα substrate ([…]), 20 μM ATP, 2 nM or 8 nM IKKε or TBK1 kinase respectively, and 3% DMSO in kinase assay buffer consisting of 50 mM HEPES (pH 7.5), 10 mM MgCl, 1 mM EGTA, 0.01% Brij-35.Compound dilutions were prepared from 10 mM DMSO stocks by dilution into DMSO. Compound dilution series were further diluted in kinase assay buffer to give a 12% DMSO stock, the final concentration in the assay being 3% DMSO.The kinase phosphorylation assay was initiated by the addition of the kinase and the reaction was allowed to proceed for 1 h or 2.5 h for IKKε and TBK-1 kinase respectively. (In general: Time-resolved FRET reads energy transfer from a long-lived donor to a nearby acceptor.)

Consider `CC(C)(N)c1ccc(Nc2nccc(-c3cnc(N4CC[C@H](F)C4)c(C#N)c3)n2)cn1`, for which the IC50 (commonly the point on the concentration scale where inhibition reaches its midpoint) is below 100 nM.
